We go through one compound from patent publication US9896445B2, “Heterocyclic inhibitors of ERK1 and ERK2 and their use in the treatment of cancer” (Asana Biosciences, LLC, priority 2015, dated 2018).

Sequences of proteins named here, by UniProt entry; tags and fusion partners are left off.
UniProt P27361, whole entry: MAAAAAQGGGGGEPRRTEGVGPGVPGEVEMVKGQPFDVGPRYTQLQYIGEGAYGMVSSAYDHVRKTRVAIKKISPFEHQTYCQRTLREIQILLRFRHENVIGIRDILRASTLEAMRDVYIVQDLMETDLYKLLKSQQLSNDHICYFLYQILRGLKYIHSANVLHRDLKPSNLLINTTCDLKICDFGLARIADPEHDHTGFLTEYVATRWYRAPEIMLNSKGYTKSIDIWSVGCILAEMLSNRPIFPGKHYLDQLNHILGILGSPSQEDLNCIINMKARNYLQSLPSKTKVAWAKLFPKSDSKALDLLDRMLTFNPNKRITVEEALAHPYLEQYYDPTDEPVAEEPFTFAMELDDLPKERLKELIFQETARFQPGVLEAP

Where only a bound is given, the exact number is not on record here.

The target in the test is T1, ERK1 (Homo sapiens, UniProt P27361).
T1 construct: purchased Jubilant Biosys
Description: ERK1 HTRF (biochemical) assay. As for the experimental part: ERK1 and ERK2 HTRF (Biochemical) Assays
These assays employed a homogeneous time resolved fluorescence (HTRF) technique. […] The plate was incubated at room temperature for 60 min with shaking. […] The IC50 values (half maximal inhibitory concentration values) were subsequently determined using a sigmoidal dose-response curve (variable slope) in GraphPad Prism® 5 software.
In general terms: TR-FRET usually uses a lanthanide donor and a delayed reading to cut background.

For orientation: IC50 means the concentration that inhibits the measured activity by half. A higher IC50 goes with weaker potency. In the case of `O=C(Nc1cnn(-c2ccnc(Nc3cccnc3)n2)c1)N[C@H](CO)c1cccc(Cl)c1` [Compound 24, (S)-1-(1-(3-chlorophenyl)-2-hydroxyethyl)-3-(1-(2-(pyridin-3-yl-amino)pyrimidin-4-yl)-1H-pyrazol-4-yl)urea], the IC50 is less than 50 nM.
